Measurements reported in EP0032748B1, “Thiophene derivatives” (UBE INDUSTRIES, LTD., priority 1980, dated 1981).

System: paddy rice
Assay: Test Example 3: degree of phytotoxicity on paddy rice (injury rating)
Settings: Table 4, spray liquid 65 ppm

Work on Ammonium iron methanearsonate yielded a Degree of phytotoxicity of 0.
